Laboratory results as given in PubChem BioAssay (NCI).
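48-hour exposure; five concentrations; linearly interpolated endpoints. Abbreviation: GI50, concentration required for 50% inhibition of growth. The concentration for full growth arrest is given as TGI.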

How the values were obtained:
Experiment in all cases: NCI-60 cell line screen, 48 h; in the data active = GI50 below about 0.43 µM; inactive = the rest
IGROV1 ovarian = system: IGROV1 ovarian
LOX IMVI melanoma = system: LOX IMVI melanoma
OVCAR-4 ovarian = system: OVCAR-4 ovarian
MOLT-4 leukemia = system: MOLT-4 leukemia
UO-31 renal = system: UO-31 renal
SK-MEL-28 melanoma = system: SK-MEL-28 melanoma
HOP-92 NSCLC = system: HOP-92 NSCLC
KM12 colon = system: KM12 colon
UACC-257 melanoma = system: UACC-257 melanoma
A498 renal = system: A498 renal
SF-295 CNS = system: SF-295 CNS
MDA-MB-435 = system: MDA-MB-435
SR leukemia = system: SR leukemia
HT29 colon = system: HT29 colon
MCF7 breast = system: MCF7 breast
OVCAR-5 ovarian = system: OVCAR-5 ovarian
SW-620 colon = system: SW-620 colon
NCI/ADR-RES ovarian = system: NCI/ADR-RES ovarian
DU-145 prostate = system: DU-145 prostate
MDA-N = system: MDA-N
M14 melanoma = system: M14 melanoma
HCT-116 colon = system: HCT-116 colon
CCRF-CEM leukemia = system: CCRF-CEM leukemia
HCT-15 colon = system: HCT-15 colon
PC-3 prostate = system: PC-3 prostate
MDA-MB-231 breast = system: MDA-MB-231 breast
RPMI-8226 leukemia = system: RPMI-8226 leukemia
A549 NSCLC = system: A549 NSCLC
K-562 leukemia = system: K-562 leukemia
COLO 205 colon = system: COLO 205 colon
OVCAR-8 ovarian = system: OVCAR-8 ovarian
HCC-2998 colon = system: HCC-2998 colon
SN12C renal = system: SN12C renal
NCI-H522 lung = system: NCI-H522 lung
NCI-H23 lung = system: NCI-H23 lung
HOP-62 NSCLC = system: HOP-62 NSCLC
UACC-62 melanoma = system: UACC-62 melanoma
BT-549 breast = system: BT-549 breast
SK-OV-3 ovarian = system: SK-OV-3 ovarian
U251 CNS = system: U251 CNS
NCI-H226 lung = system: NCI-H226 lung
SF-539 CNS = system: SF-539 CNS
SNB-19 CNS = system: SNB-19 CNS
SF-268 CNS = system: SF-268 CNS
HS 578T breast = system: HS 578T breast
786-0 renal = system: 786-0 renal
ACHN renal = system: ACHN renal
SK-MEL-2 melanoma = system: SK-MEL-2 melanoma
TK-10 renal = system: TK-10 renal
T-47D breast = system: T-47D breast
EKVX NSCLC = system: EKVX NSCLC
SK-MEL-5 melanoma = system: SK-MEL-5 melanoma
OVCAR-3 ovarian = system: OVCAR-3 ovarian
CAKI-1 renal = system: CAKI-1 renal

CC(C)(C)C12COC(c3ccc(N)cc3)(OC1)OC2
> 50 µM: TGI (IGROV1 ovarian) | TGI (LOX IMVI melanoma) | TGI (OVCAR-4 ovarian) | TGI (MOLT-4 leukemia) | TGI (UO-31 renal) | TGI (SK-MEL-28 melanoma) | TGI (HOP-92 NSCLC) | TGI (KM12 colon) | TGI (UACC-257 melanoma) | TGI (A498 renal) | TGI (SF-295 CNS) | TGI (MDA-MB-435) | TGI (SR leukemia) | TGI (HT29 colon) | TGI (MCF7 breast) | TGI (OVCAR-5 ovarian) | TGI (SW-620 colon) | TGI (NCI/ADR-RES ovarian) | TGI (DU-145 prostate) | TGI (MDA-N) | TGI (M14 melanoma) | TGI (HCT-116 colon) | TGI (CCRF-CEM leukemia) | TGI (HCT-15 colon) | TGI (PC-3 prostate) | TGI (MDA-MB-231 breast) | TGI (RPMI-8226 leukemia) | TGI (A549 NSCLC) | TGI (K-562 leukemia) | TGI (COLO 205 colon) | TGI (OVCAR-8 ovarian) | TGI (HCC-2998 colon) | TGI (SN12C renal) | TGI (NCI-H23 lung) | TGI (HOP-62 NSCLC) | TGI (UACC-62 melanoma) | TGI (BT-549 breast) | TGI (SK-OV-3 ovarian) | TGI (U251 CNS) | TGI (NCI-H226 lung) | TGI (SF-539 CNS) | TGI (SNB-19 CNS) | TGI (786-0 renal) | TGI (ACHN renal) | TGI (SK-MEL-2 melanoma) | TGI (TK-10 renal) | TGI (T-47D breast) | TGI (EKVX NSCLC) | TGI (SK-MEL-5 melanoma) | TGI (OVCAR-3 ovarian) | TGI (CAKI-1 renal)
inactive: GI50 (IGROV1 ovarian) > 50 µM | GI50 (LOX IMVI melanoma) > 50 µM | GI50 (OVCAR-4 ovarian) > 50 µM | GI50 (MOLT-4 leukemia) > 50 µM | GI50 (UO-31 renal) > 50 µM | GI50 (SK-MEL-28 melanoma) > 50 µM | GI50 (HOP-92 NSCLC) 8.53 µM | GI50 (KM12 colon) > 50 µM | GI50 (UACC-257 melanoma) > 50 µM | GI50 (A498 renal) > 50 µM | GI50 (SF-295 CNS) > 50 µM | GI50 (MDA-MB-435) > 50 µM | GI50 (SR leukemia) > 50 µM | GI50 (HT29 colon) > 50 µM | GI50 (MCF7 breast) > 50 µM | GI50 (OVCAR-5 ovarian) > 50 µM | GI50 (SW-620 colon) > 50 µM | GI50 (NCI/ADR-RES ovarian) > 50 µM | GI50 (DU-145 prostate) > 50 µM | GI50 (MDA-N) > 50 µM | GI50 (M14 melanoma) > 50 µM | GI50 (HCT-116 colon) > 50 µM | GI50 (CCRF-CEM leukemia) > 50 µM | GI50 (HCT-15 colon) > 50 µM | GI50 (PC-3 prostate) > 50 µM | GI50 (MDA-MB-231 breast) > 50 µM | GI50 (RPMI-8226 leukemia) > 50 µM | GI50 (A549 NSCLC) > 50 µM | GI50 (K-562 leukemia) > 50 µM | GI50 (COLO 205 colon) > 50 µM | GI50 (OVCAR-8 ovarian) > 50 µM | GI50 (HCC-2998 colon) > 50 µM | GI50 (SN12C renal) > 50 µM | GI50 (NCI-H522 lung) 7.22 µM | GI50 (NCI-H23 lung) > 50 µM | GI50 (HOP-62 NSCLC) > 50 µM | GI50 (UACC-62 melanoma) > 50 µM | GI50 (BT-549 breast) > 50 µM | GI50 (SK-OV-3 ovarian) > 50 µM | GI50 (U251 CNS) > 50 µM | GI50 (NCI-H226 lung) > 50 µM | GI50 (SF-539 CNS) > 50 µM | GI50 (SNB-19 CNS) > 50 µM | GI50 (SF-268 CNS) 7.01 µM | GI50 (HS 578T breast) 8.32 µM | GI50 (786-0 renal) > 50 µM | GI50 (ACHN renal) > 50 µM | GI50 (SK-MEL-2 melanoma) > 50 µM | GI50 (TK-10 renal) > 50 µM | GI50 (T-47D breast) > 50 µM | GI50 (EKVX NSCLC) > 50 µM | GI50 (SK-MEL-5 melanoma) > 50 µM | GI50 (OVCAR-3 ovarian) > 50 µM | GI50 (CAKI-1 renal) > 50 µM
14.5 µM: TGI (NCI-H522 lung)
13.9 µM: TGI (SF-268 CNS)
19.5 µM: TGI (HS 578T breast)
